# Assays:
# Format in all cases: functional, cell membranes
# [1] = biological target: T1, Type-1 angiotensin II receptor (Homo sapiens, UniProt P30556); assay: Antagonist activity at Flag-tagged AT1R (unknown origin) extracted from HEK293 cell membrane co expressing YPET-ARRB1 assessed as beta-arrestin 1 recruitment using NanoGlo as substrate preincubated for 30 mins followed by substrate addition for 10 mins by BRET assay
# [2] = biological target: T1, Type-1 angiotensin II receptor; assay: Antagonist activity at Flag-tagged AT1R (unknown origin) extracted from HEK293 cell membrane co expressing YPET-ARRB2 assessed as beta-arrestin 2 recruitment using NanoGlo as substrate preincubated for 30 mins followed by substrate addition for 10 mins by BRET assay
# [3] = biological target: T1, Type-1 angiotensin II receptor; assay: Antagonist activity at Flag-tagged AT1R (unknown origin) extracted from HEK293 cell membrane assessed as increase in intracellular calcium incubated for 30 mins by microplate reader analysis
smiles,measurement,setting,value
CCCCc1nc(Cl)c(CO)n1Cc1ccc(-c2ccccc2-c2nnn[nH]2)cc1 [LOSARTAN],EC50,[1],Not_determined
same,EC50,[2],Not_determined
same,EC50,[3],Active
